Literature values as cited in patent US20080145918A1, “Method for the Detoxification of a Hazardous Compound” (published 2008).

System: guppy
Conditions: comparative example (reference 1); cited from earlier work

For `C[As](C)(=O)O`, the “rate of methylated arsenic in the total arsenic” value is given as 1.2%.
